What all share (conditions): remark: other sources report otherwise
The target in assay [1] is HLA-A*3301 (human). Nature of the assay: inhibition of 125I-HBV 141.Y7 binding to purified HLA.
The next assay has as its target HLA-A*6801 (human). Nature of the assay: inhibition of 125I-A3con binding to purified HLA.
The target in the next assay is HLA-A*1101 (human). Nature of the assay: inhibition of 125I-A3con binding to purified HLA.
Assay [2] addresses HLA-B*5401 (human). Nature of the assay: competition vs 125I probe peptide, purified HLA.
A further assay concerns the target HLA-A*0101 (human). Nature of the assay: competition with 125I-J chain peptide, purified HLA.
Assay [3] deals with HLA-B*0702 (human). Nature of the assay: competition with 125I-A*0201 signal sequence 5-13a.Y7, purified HLA.
The next assay deals with HLA-B*5301 (human). Nature of the assay: competition with 125I-B35con2, purified HLA.
Assay [4] concerns the target HLA-B*5401 (human). Nature of the assay: competition with 125I-B35con2, purified HLA.
Assay [5] deals with HLA-B*5101 (human). Nature of the assay: competition with 125I-B35con2, purified HLA.
For assay [6], the target named is HLA-B*3501 (human). Nature of the assay: competition with 125I-B35con2, purified HLA.
A further assay addresses HLA-A*0301 (human). Nature of the assay: competition vs 125I probe peptide, purified HLA.
Assay [7] deals with HLA-A*3301 (human). Nature of the assay: competition vs 125I probe peptide, purified HLA.
For the next assay, the target named is HLA-B*4501 (human). Nature of the assay: competitive inhibition of labelled peptide binding to purified HLA.
The target of another assay is HLA-B*4403 (human). The description is as above.
Another assay concerns the target HLA-A*2402 (human). Nature of the assay: competition with 125I-A24con, purified HLA.
In a further assay the target is HLA-A*0202 (human). Nature of the assay: competitive inhibition, purified HLA.
In assay [8] the target is HLA-B*5101 (human). Nature of the assay: competition vs 125I probe peptide, purified HLA.
The target in assay [9] is HLA-B*3501 (human). Nature of the assay: competition vs 125I probe peptide, purified HLA.
Assay [10] has as its target HLA-B*0702 (human). Nature of the assay: competition vs 125I probe peptide, purified HLA.

B1: CEA.554.V2 (peptide)
peptide: RVLTLFNVTR
Consider B1, for which the results for the IC50 in the assay with HLA-A*3301 (human) [1], with HLA-A*6801 (human) and with HLA-A*1101 (human) were 7630 nM, 42 nM and 94 nM, respectively.

B2: CEA.58 (peptide)
peptide: LPQHLFGYSW
In the case of B2, in the assay with HLA-B*5401 (human) [2], the IC50 (as a rule, the concentration that inhibits the measured activity by half) came to 4350 nM.

B3: CEA.616 … (peptide)
peptide: HSASNPSPQY
B3 had a 50% inhibitory concentration (IC50) with HLA-A*0101 (human) of 74 nM.

B4: MAGE3.196.I10 … (peptide)
peptide: MPKAGLLIII
Turning to B4, the IC50 in the assay with HLA-B*0702 (human) [3] was 324 nM; with HLA-B*5301 (human), 176 nM; in the assay with HLA-B*5401 (human) [4] it was 102 nM; with HLA-B*5101 (human) [5] it was 62 nM; with HLA-B*3501 (human) [6], 2400 nM.

B5: Her2/neu.669 (10-mer) (peptide)
peptide: VVFGILIKRR
Take B5: the values for the IC50 in the assay with HLA-A*0301 (human) and with HLA-A*3301 (human) [7] were 3670 nM and 193 nM, respectively.

B6: Her2/neu position 285, 12-mer (peptide)
peptide: PEGRYTFGASCV
In the case of B6, the IC50 stood at 356 nM with HLA-B*4501 (human) and 348 nM in the assay with HLA-B*4403 (human).

B7: MAGE3.195 … (peptide)
peptide: IMPKAGLLII
B7: the IC50 with HLA-A*2402 (human) is 240 nM.

B8: CEA.102 YPNASLLI (peptide)
peptide: YPNASLLI
In the case of B8, the IC50 in the assay with HLA-B*0702 (human) [3] worked out at 196 nM; with HLA-B*5101 (human) [5], 8.1 nM; with HLA-B*3501 (human) [6] it was 514 nM.

B9: Her2/neu.48 (peptide)
peptide: HLYQGCQVV
Molecule B9 yielded an IC50 with HLA-A*0202 (human) of 307 nM.

B10: CEA.102 (peptide)
peptide: YPNASLLI
Take B10: the IC50 was determined as 8.1 nM in the assay with HLA-B*5101 (human) [8], 514 nM in the assay with HLA-B*3501 (human) [9] and 196 nM in the assay with HLA-B*0702 (human) [10].

The values are drawn from EP1903056A2.
